# This excerpt belongs to a sample that is enriched for the strongest signals.
# Key:
# Experiment in all cases: glycan array binding signal (z-score within array); higher = stronger binding
# Settings in all cases: glycan notation: IUPAC condensed, linker removed
# [1] = target: Fuc(a1-2)Gal(b1-3)[Fuc(a1-4)]GlcNAc(b1-3)[Fuc(a1-3)[Gal(b1-4)]GlcNAc(b1-6)]Gal(b1-4)Glc
# [2] = target: Fuc(a1-2)Gal(b1-4)GlcNAc(b1-2)Man(a1-3)[Fuc(a1-2)Gal(b1-4)GlcNAc(b1-2)Man(a1-6)]Man(b1-4)GlcNAc(b1-4)GlcNAc
# [3] = target: Fuc(a1-2)Gal(b1-4)GlcNAc(b1-2)[Fuc(a1-2)Gal(b1-4)GlcNAc(b1-4)]Man(a1-3)[Fuc(a1-2)Gal(b1-4)GlcNAc(b1-2)Man(a1-6)]Man(b1-4)GlcNAc(b1-4)GlcNAc
# [4] = target: Fuc(a1-2)Gal(b1-4)GlcNAc(b1-3)Gal(b1-4)GlcNAc
# [5] = target: Fuc(a1-2)Gal(b1-4)GlcNAc(b1-3)Gal(b1-4)GlcNAc(b1-2)Man(a1-3)[Fuc(a1-2)Gal(b1-4)GlcNAc(b1-3)Gal(b1-4)GlcNAc(b1-2)Man(a1-6)]Man(b1-4)GlcNAc(b1-4)GlcNAc
# [6] = target: Fuc(a1-2)Gal(b1-4)GlcNAc(b1-3)Gal(b1-4)GlcNAc(b1-3)Gal(b1-4)GlcNAc
# [7] = target: Fuc(a1-2)Gal(b1-4)[Fuc(a1-3)]GlcNAc(b1-3)Gal(b1-4)[Fuc(a1-3)]GlcNAc
# [8] = target: Fuc(a1-2)Gal6S(b1-3)GlcNAc
# [9] = target: Fuc(a1-2)[GalNAc(a1-3)]Gal
# [10] = target: Fuc(a1-2)[GalNAc(a1-3)]Gal(b1-3)GalNAc(a1-3)[Fuc(a1-2)]Gal(b1-4)GlcNAc
# [11] = target: Fuc(a1-2)[GalNAc(a1-3)]Gal(b1-3)GalNAc(b1-3)Gal(a1-4)Gal(b1-4)Glc
# [12] = target: Fuc(a1-2)[GalNAc(a1-3)]Gal(b1-3)GlcNAc
# [13] = target: Fuc(a1-3)[Gal(b1-4)]GlcNAc(b1-3)Gal(b1-4)[Fuc(a1-3)]GlcNAc
# Gal(a1-3)Gal(b1-3)GlcNAc = target: Gal(a1-3)Gal(b1-3)GlcNAc
# Gal(a1-3)Gal(b1-4)GlcNAc = target: Gal(a1-3)Gal(b1-4)GlcNAc
# [14] = target: Gal(a1-3)Gal(b1-4)[Fuc(a1-3)]GlcNAc(b1-2)Man(a1-3)[Gal(a1-3)Gal(b1-4)[Fuc(a1-3)]GlcNAc(b1-2)Man(a1-6)]Man(b1-4)GlcNAc(b1-4)GlcNAc
# [15] = target: Gal(a1-4)Gal(b1-4)GlcNAc(b1-3)Gal(b1-4)Glc
# Gal(b1-3)Gal(b1-4)GlcNAc = target: Gal(b1-3)Gal(b1-4)GlcNAc
# [16] = target: Gal(b1-3)GlcNAc(b1-3)Gal(b1-3)GlcNAc
# [17] = target: Gal(b1-3)GlcNAc(b1-3)Gal(b1-4)GlcNAc(b1-2)Man(a1-3)[Gal(b1-3)GlcNAc(b1-3)Gal(b1-4)GlcNAc(b1-2)Man(a1-6)]Man(b1-4)GlcNAc(b1-4)GlcNAc
# [18] = target: Gal(b1-3)GlcNAc(b1-3)Gal(b1-4)GlcNAc(b1-2)[Gal(b1-3)GlcNAc(b1-3)Gal(b1-4)GlcNAc(b1-6)]Man(a1-6)[Gal(b1-3)GlcNAc(b1-3)Gal(b1-4)GlcNAc(b1-2)Man(a1-3)]Man(b1-4)GlcNAc(b1-4)[Fuc(a1-6)]GlcNAc
# [19] = target: Gal(b1-3)GlcNAc(b1-3)Gal(b1-4)GlcNAc(b1-3)Gal(b1-4)GlcNAc(b1-2)[Gal(b1-3)GlcNAc(b1-3)Gal(b1-4)GlcNAc(b1-3)Gal(b1-4)GlcNAc(b1-6)]Man(a1-6)[Gal(b1-3)GlcNAc(b1-3)Gal(b1-4)GlcNAc(b1-3)Gal(b1-4)GlcNAc(b1-2)Man(a1-3)]Man(b1-4)GlcNAc(b1-4)[Fuc(a1-6)]GlcNAc
# [20] = target: Gal(b1-3)GlcNAc(b1-3)Gal(b1-4)GlcNAc(b1-6)[Gal(b1-3)GlcNAc(b1-3)]Gal(b1-4)Glc
# [21] = target: Gal(b1-4)GlcNAc(b1-2)Man(a1-6)[GlcNAc(b1-2)Man(a1-3)]Man(b1-4)GlcNAc(b1-4)GlcNAc
# [22] = target: Gal(b1-4)GlcNAc(b1-2)[Gal(b1-4)GlcNAc(b1-4)]Man(a1-3)[Gal(b1-4)GlcNAc(b1-2)[Gal(b1-4)GlcNAc(b1-6)]Man(a1-6)]Man(b1-4)GlcNAc(b1-4)GlcNAc
binder,measurement,setting,value
Gal 7 (Mus musculus) (protein) MSPILGYWKIKGLVQPTRLLLEYLEEKYEEHLYERDEGDKWRNKKFELGLEFPNLPYYIDGDVKLTQSMAIIRYIADKHNMLGGCPKERAEISMLEGAVLDIRYGVSRIAYSKDFETLKVDFLSKLPEMLKMFEDRLCHKTYLNGDHVTHPDFMLYDALDVVLYMDPMCLDAFPKLVCFKKRIEAIPQIDKYLKSSKYIAWPLQGWQATFGGGDHPPKSDLVPRGSMSATHHKTSLPQGVRVGTVMRIRGMVPDQAGRFHVNLLCGEEQGADAALHFNPRLDTSEVVFNTKEQGKWGREERGTGIPFERGQPFEVLLIATEEGFKAVVGDDEYLHFHHRMPPARVRLVEVGGDVQLHSLNIF,glycan array binding signal (z-score),[1],-0.314
same,glycan array binding signal (z-score),[2],0.231
same,glycan array binding signal (z-score),[3],0.173
same,glycan array binding signal (z-score),[4],6.32
same,glycan array binding signal (z-score),[5],8.38
same,glycan array binding signal (z-score),[6],9.02
same,glycan array binding signal (z-score),[7],-0.337
same,glycan array binding signal (z-score),[8],-0.385
same,glycan array binding signal (z-score),[9],-0.354
same,glycan array binding signal (z-score),[10],-0.323
same,glycan array binding signal (z-score),[11],-0.419
same,glycan array binding signal (z-score),[12],-0.249
same,glycan array binding signal (z-score),[13],-0.33
same,glycan array binding signal (z-score),Gal(a1-3)Gal(b1-3)GlcNAc,0.284
same,glycan array binding signal (z-score),Gal(a1-3)Gal(b1-4)GlcNAc,0.04
same,glycan array binding signal (z-score),[14],-0.224
same,glycan array binding signal (z-score),[15],-0.277
same,glycan array binding signal (z-score),Gal(b1-3)Gal(b1-4)GlcNAc,-0.044
same,glycan array binding signal (z-score),[16],3.23
same,glycan array binding signal (z-score),[17],2.95
same,glycan array binding signal (z-score),[18],2.88
same,glycan array binding signal (z-score),[19],4.51
same,glycan array binding signal (z-score),[20],3.46
same,glycan array binding signal (z-score),[21],-0.175
same,glycan array binding signal (z-score),[22],0.411

# Reference: the supplement of paper PMC8728848
